The numbers were not newly measured in patent US20090222938A1, “Therapeutic Target Molecules For The Development of Novel Medicaments for Degenerative Diseases” (Neuroprofile GMBH, priority 2006, published 2009), which cites them from elsewhere.

The data set concerns ALS. The settings on record: ALS patients, symptomatic therapy; cited from earlier work.

Take `Nc1nc2ccc(OC(F)(F)F)cc2s1` [riluzol]: the “extension of the survival life time” value is 2 months.
